One assay has as its target Smu. 1393c (Streptococcus mutans, UniProt Q8DTF4). Kind of assay: Inhibition of Smu. 1393c PNP-ac hydrolysis by demeton-S-methyl.
The next assay addresses AChE (Electrophorus electricus, UniProt O42275). Briefly: Ellman assay with 0-20 mM acetylthiocholine and 500 uM DTNB in 200 mM NaCl, 20 mM Tris pH 7.4, uninhibited AChE, Michaelis-Menten fit. Conditions: read-out: Km (mM), AChE. Background: DTNB colorimetry detects thiols as they appear.

Sequences of proteins named here, by UniProt entry; tags and fusion partners are left off. Residues count along the entry.
UniProt O42275, 24-633 limits assumed: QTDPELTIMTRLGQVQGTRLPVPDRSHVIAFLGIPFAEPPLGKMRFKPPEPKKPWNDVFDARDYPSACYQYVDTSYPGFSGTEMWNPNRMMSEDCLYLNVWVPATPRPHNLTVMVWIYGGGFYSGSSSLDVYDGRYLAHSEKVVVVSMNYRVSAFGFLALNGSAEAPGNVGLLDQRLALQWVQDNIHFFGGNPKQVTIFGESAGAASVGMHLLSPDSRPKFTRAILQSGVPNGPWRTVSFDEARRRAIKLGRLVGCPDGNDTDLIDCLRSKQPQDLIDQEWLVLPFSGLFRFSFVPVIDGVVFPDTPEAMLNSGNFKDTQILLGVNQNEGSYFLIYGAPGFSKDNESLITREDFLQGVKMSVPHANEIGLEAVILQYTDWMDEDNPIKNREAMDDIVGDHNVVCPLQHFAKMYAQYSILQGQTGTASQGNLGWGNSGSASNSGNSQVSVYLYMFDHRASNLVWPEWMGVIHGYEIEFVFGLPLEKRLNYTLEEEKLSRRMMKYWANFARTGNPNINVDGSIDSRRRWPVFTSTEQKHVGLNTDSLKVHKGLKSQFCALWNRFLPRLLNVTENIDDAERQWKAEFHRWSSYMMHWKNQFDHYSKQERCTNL

By Ki is commonly meant the equilibrium dissociation constant of an inhibitor or competing ligand from its target. Broadly, the Km is the concentration of substrate that gives half-maximal velocity.

Regarding `CCSCCSP(=O)(OC)OC`, the manner of inhibition entry on Smu. 1393c (double reciprocal plot) is reported as “non-competitive”. Further, the Ki on Smu. 1393c (inhibition of PNP-ac hydrolysis activity) was determined as 10.6 µM.
For `CC(=O)SCC[N+](C)(C)C`, at AChE, the Km was 3.05 mM.
